Measured values: ChEMBL document CHEMBL5385848, “Discovery of novel hydroxyamidine based indoleamine 2,3-dioxygenase 1 (IDO1) and thioredoxin reductase 1 (TrxR1) dual inhibitors” (Eur J Med Chem, 2023)

The chains behind the UniProt entries cited, without tags or fusion partners. Where a name states a change or a piece, a line headed by the entry shows the natural chain unless it says otherwise.
UniProt P48775: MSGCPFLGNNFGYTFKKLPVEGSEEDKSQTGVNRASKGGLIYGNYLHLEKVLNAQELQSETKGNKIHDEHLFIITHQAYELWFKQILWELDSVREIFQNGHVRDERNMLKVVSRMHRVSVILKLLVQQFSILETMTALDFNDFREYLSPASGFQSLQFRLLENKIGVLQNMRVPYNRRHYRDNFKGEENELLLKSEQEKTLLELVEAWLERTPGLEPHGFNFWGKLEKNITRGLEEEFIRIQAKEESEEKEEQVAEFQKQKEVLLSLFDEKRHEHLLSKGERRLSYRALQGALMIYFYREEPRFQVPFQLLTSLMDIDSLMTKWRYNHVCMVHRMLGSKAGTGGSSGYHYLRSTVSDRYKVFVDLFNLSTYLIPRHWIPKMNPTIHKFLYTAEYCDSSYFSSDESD

Target: Tryptophan 2,3-dioxygenase (Homo sapiens, UniProt P48775)
Assay: Inhibition of TDO (unknown origin) using L-Trp as substrate incubated for 75 mins

Question: Fc1ccc2c(/C=C/c3cccnc3)c[nH]c2c1 was tested. Which IC50 did it give?
Answer: 410 nM
